Assay results: patent publication US11358960B2, “Pyrazol-3-ones that activate pro-apoptotic BAX” (Dana-Farber Cancer Institute, Inc., priority 2011, dated 2022)
Read-outs that look alike come from different tables or passages of the source.

Amino acid sequences for entries named in this document (tags omitted).
UniProt Q07812, whole entry: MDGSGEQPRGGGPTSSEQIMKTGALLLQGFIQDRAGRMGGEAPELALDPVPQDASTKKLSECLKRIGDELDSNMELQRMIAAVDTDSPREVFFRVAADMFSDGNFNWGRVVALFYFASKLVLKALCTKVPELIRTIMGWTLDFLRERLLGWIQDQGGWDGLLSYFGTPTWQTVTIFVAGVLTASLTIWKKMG

Experiments:
[1] = biological target: recombinant full-length BAX (Homo sapiens, UniProt Q07812); assay: Competitive fluorescence polarization assay: displacement of FITC-BIM SAHB from BAX; format: binding; conditions: read-out: FITC-BIM SAHB Competition IC50, comparative tables of Example 6
[2] = system: BCL-XL-dependent leukemia cell line; assay: Caspase 3/7 and cell death in BCL-XL-dependent leukemia cell line
[3] = system: leukemia cells; assay: Leukemia cell viability (anti-leukemic activity); conditions: FIGS. 15-17
[4] = system: MCL-1 dependent leukemia cell line; assay: Caspase 3/7 and cell death in isogenic MCL-1 dependent leukemia cell line

SMILES | IC50 [1] [nM] | also measured
CC1=NN(c2nc(-c3ccccc3)cs2)C(=O)C1=NNc1ccccc1C(=O)O | 1700 | 
O=C(O)c1ccccc1NN=C1C(=O)N(c2nc(-c3ccccc3)cs2)N=C1c1cccs1 | 220 | 
CCOc1ccccc1NN=C1C(=O)N(c2nc(-c3ccccc3)c[nH]2)N=C1C | 500 | 
CCOc1ccccc1NN=C1C(=O)N(c2nc(-c3ccccc3)cs2)N=C1CC | 6200 | 
CCOc1ccccc1NN=C1C(=O)N(c2nc(-c3ccccc3)c(C)s2)N=C1C | 2000 | 
CC1=NN(c2nc(-c3ccccc3)cs2)C(=O)C1=NNc1ccccc1OCCN | 2000 | caspase 3/7 activity [2]: induces dose-responsive caspase 3/7 activity; cell death [2]: cell death in both cell lines; anti-leukemic activity [3]: broad anti-leukemic activity; caspase 3/7 activity [4]: induces dose-responsive caspase 3/7 activity; cell death [4]: cell death in both cell lines
O=C(O)c1ccccc1NN=C1C(=O)N(c2nc(-c3ccccc3)cs2)N=C1c1ccccc1 | 100 | 
CC1=NN(c2nc(-c3ccccc3)cs2)C(=O)C1=NNc1ccccc1N1CCNCC1 |  | IC50 ([1]; tested form: HCl): 2700 nM
CCOc1ccccc1NN=C1C(=O)N(c2nc(-c3ccccc3)cs2)N=C1c1ccccc1 | 900 | 
CCOc1ccccc1NN=C1C(=O)N(c2nc(-c3ccccc3)cs2)N=C1c1cccs1 | 2500 | 
CCOc1ccccc1NN=C1C(=O)N(c2nc(-c3nccs3)cs2)N=C1C | 2400 | 
CC1=NN(c2nc(-c3ccccc3)cs2)C(=O)C1=NNc1ccccc1N1CCN(C(=O)OC(C)(C)C)CC1 | 1500 | 
